{"source": "PubChem BioAssay AID624304", "about": "(Sanford-Burnham Center for Chemical Genomics, 2012)", "note": "Only a part is listed here, and it is no random draw. Calls of active or inactive are those of the source.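 How the source made its calls: active means interference check ratio from 0.5 to 1.5 plus GFP to RFP signal ratio inhibition reaching or exceeding a fixed threshold (cut at about 30% in these data, passing the limit was not always enough); inactive means the rest.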"}
{"experiment": "suppressors of acrylamide-induced Pgst-4::GFP reporter in worms, primary screen, SKN-1 inhibitor project, whole organism, uHTS, GFP/RFP fluorescence ratio, strain VP596 (AID 624304)", "details": "C. elegans VP596 Pgst-4::GFP/RFP ratio, 24 h, at 21.8 µM, hits give high values"}
{"compound": "CC(C)(C)n1nnnc1C(c1ccnc2ccccc12)N1CCC(n2c(=O)[nH]c3ccccc32)CC1", "note": "(stereo not given)", "inhibition": "inactive: 9.17%"}
{"compound": "CCN1CCC(Nc2cccc(F)c2)CC1", "inhibition": "inactive: -5.51%"}
{"compound": "COc1ccc(C(c2nnnn2C2CCCCC2)N2CCC(n3c(=O)[nH]c4ccccc43)CC2)cc1", "note": "(stereo not given)", "inhibition": "inactive: -1.01%"}
{"compound": "Cc1ccccc1NC1(C#N)CCN(Cc2ccccc2)CC1", "inhibition": "inactive: -0.0628%"}
{"compound": "Cn1c(=O)[nH]cc(N(CCCl)CCCl)c1=O", "inhibition": "inactive: 24.5%"}
{"compound": "CN(C)c1ccc(C(=O)NCC2(N3CCCCC3)CCCCC2)cc1", "inhibition": "inactive: 8.54%"}
{"compound": "O=C(NCC1(N2CCCCC2)CCCCC1)c1ccco1", "inhibition": "inactive: 19.3%"}
{"compound": "CCC(c1nnnn1C1CCCCC1)N1CCC(n2c(=O)[nH]c3ccccc32)CC1", "note": "(stereo not given)", "inhibition": "inactive: -7.96%"}
{"compound": "CC(=O)N(c1ccccc1)C1CCNCC1", "inhibition": "inactive: 7.79%"}
{"compound": "COc1cccc(C(c2nnnn2C2CCCCC2)N2CCC(n3c(=O)[nH]c4ccccc43)CC2)c1OC", "note": "(stereo not given)", "inhibition": "inactive: 4.28%"}
{"compound": "O=c1[nH]c2ccccc2n1C1CCN(C(c2ccnc3ccccc23)c2nnnn2C2CCCCC2)CC1", "note": "(stereo not given)", "inhibition": "inactive: 5.4%"}
{"compound": "COc1cc(OC)cc(C(=O)NCC2(N3CCCCC3)CCCCC2)c1", "inhibition": "inactive: 9.65%"}
{"compound": "Fc1ccccc1NC1CCN(Cc2ccccc2)CC1", "inhibition": "inactive: 1.25%"}
{"compound": "Cc1ccc(C(=O)NCC2(N3CCCCC3)CCCCC2)o1", "inhibition": "inactive: -7.08%"}
{"compound": "Cc1ccc(NC2(C#N)CCN(Cc3ccccc3)CC2)cc1", "inhibition": "inactive: -3.95%"}
{"compound": "COc1cccc(C(=O)N(c2cc(C)cc(C)c2)C2CCN(C(=O)OC(C)(C)C)CC2)c1", "inhibition": "inactive: 0.51%"}
{"compound": "COc1cc(OC)cc(C(=O)NCC2(N3CCOCC3)CCCCC2)c1", "inhibition": "inactive: -2.93%"}
{"compound": "COc1cccc(C(c2nnnn2C2CCCC2)N2CCC(n3c(=O)[nH]c4ccccc43)CC2)c1OC", "note": "(stereo not given)", "inhibition": "inactive: 7.83%"}
{"compound": "CCC(CO)(C(=O)OC1CN2CCC1CC2)c1ccccc1", "note": "(stereo not given)", "inhibition": "inactive: -9.75%"}
{"compound": "CN1CCC(Nc2ccc(Cl)cc2)CC1", "inhibition": "inactive: -10.3%"}
{"compound": "CN1CCC(Nc2ccc(F)c(Cl)c2)CC1", "inhibition": "inactive: 21.3%"}
{"compound": "CCOc1ncccc1C(=O)NCC1(N2CCOCC2)CCCCC1", "inhibition": "inactive: -5.16%"}
{"compound": "NN(c1ccccc1)C1CCN(CCc2ccccc2)CC1", "inhibition": "inactive: 15.1%"}
{"compound": "O=C(O)C1(Nc2ccccc2)CCN(Cc2ccccc2)CC1", "inhibition": "inactive: 0.0659%"}
{"compound": "CC(C)(C)OC(=O)N1CCC(Nc2ccccc2)CC1", "inhibition": "inactive: -0.312%"}
{"compound": "CCCOc1ccc(C(=O)NCC2(N(C)C)CCCCC2)cc1", "inhibition": "inactive: 14%"}
{"compound": "O=c1[nH]c2ccccc2n1C1CCN(C(c2cc3ccccc3o2)c2nnnn2C2CCCC2)CC1", "note": "(stereo not given)", "inhibition": "inactive: 8.68%"}
{"compound": "COc1cccc(C(c2nnnn2C(C)(C)C)N2CCC(n3c(=O)[nH]c4ccccc43)CC2)c1OC", "note": "(stereo not given)", "inhibition": "inactive: -1.89%"}
{"compound": "CCOC(=O)N1CCC(Nc2ccc(C)cc2)CC1", "inhibition": "inactive: 2.76%"}
{"compound": "N/C(=N\\O)c1c(N)no[n+]1[O-]", "inhibition": "inactive: -32.5%"}
{"compound": "O=c1[nH]c2ccccc2n1C1CCN(C(c2cccs2)c2nnnn2C2CCCC2)CC1", "note": "(stereo not given)", "inhibition": "inactive: 23.7%"}
{"compound": "O=C(OC1CN2CCC1CC2)C1c2ccccc2C=Cc2ccccc21", "note": "(stereo not given)", "inhibition": "inactive: 13.5%"}
{"compound": "CCCCn1nnnc1C(c1cccc(OC)c1OC)N1CCC(n2c(=O)[nH]c3ccccc32)CC1", "note": "(stereo not given)", "inhibition": "inactive: 5.9%"}
{"compound": "COc1cc(C(=O)NCC2(N3CCOCC3)CCCCC2)cc(OC)c1C", "inhibition": "inactive: 3.67%"}
{"compound": "CCCCn1nnnc1C(c1ccccc1)N1CCC(n2c(=O)[nH]c3ccccc32)CC1", "note": "(stereo not given)", "inhibition": "inactive: 2.35%"}
{"compound": "O=C(NCC1(N2CCOCC2)CCCCC1)c1cc(Br)ccc1Cl", "inhibition": "inactive: 4.93%"}
{"compound": "O=c1[nH]c2ccccc2n1C1CCN(C(c2cccs2)c2nnnn2C2CCCCC2)CC1", "note": "(stereo not given)", "inhibition": "inactive: 16.8%"}
{"compound": "O=c1[nH]c2ccccc2n1C1CCN(C(c2ccnc3ccccc23)c2nnnn2C2CCCC2)CC1", "note": "(stereo not given)", "inhibition": "inactive: -1.69%"}
{"compound": "COc1ccc(C(=O)NCC2(N3CCOCC3)CCCCC2)cc1OC", "inhibition": "inactive: -6.5%"}
{"compound": "CN(C)C1(CNC(=O)c2cccc(C#N)c2)CCCCC1", "inhibition": "inactive: -6.64%"}
{"compound": "Cc1cc(N(CCCl)CCCl)ccc1C=O", "inhibition": "inactive: 10.9%"}
{"compound": "CCCN1CCC(Nc2cc(OC)cc(OC)c2)CC1", "inhibition": "inactive: 22.1%"}
{"compound": "O=c1[nH]c2ccccc2n1C1CCN(C(c2ccccc2)c2nnnn2C2CCCC2)CC1", "note": "(stereo not given)", "inhibition": "inactive: 16.4%"}
{"compound": "c1ccc(CN2CCC(Nc3ccccc3)CC2)cc1", "inhibition": "inactive: -16.2%"}
{"compound": "CC(C)(C)n1nnnc1C(c1cccc2ccccc12)N1CCC(n2c(=O)[nH]c3ccccc32)CC1", "note": "(stereo not given)", "inhibition": "inactive: 13.1%"}
{"compound": "N#Cc1ccc(C(=O)NCC2(N3CCCCC3)CCCCC2)cc1", "inhibition": "inactive: 7.89%"}
{"compound": "CC(C)(C)OC(=O)N1CCC(N(C(=O)c2ccccc2)c2ccc(Cl)cc2)CC1", "inhibition": "inactive: 7.91%"}
{"compound": "O=C(NCC1(N2CCCCC2)CCCCC1)c1cccc(C(F)(F)F)c1", "inhibition": "inactive: 12.1%"}
{"compound": "O=C(NCC1(N2CCOCC2)CCCCC1)c1cc(=O)[nH]c2ccccc12", "inhibition": "inactive: 4.72%"}
{"compound": "COc1cc(C(=O)NCC2(N3CCCCC3)CCCCC2)ccc1OC(F)F", "inhibition": "inactive: 12.1%"}
{"compound": "CCCCn1nnnc1C(c1cccc2ccccc12)N1CCC(n2c(=O)[nH]c3ccccc32)CC1", "note": "(stereo not given)", "inhibition": "inactive: 5.68%"}
{"compound": "CC(C)c1ccc(C(=O)NCC2(N3CCOCC3)CCCCC2)cc1", "inhibition": "inactive: 12.1%"}
{"compound": "COc1ccc(NC2CCN(C(=O)OC(C)(C)C)CC2)cc1", "inhibition": "inactive: 5.53%"}
{"compound": "CN1CCN(CCOC(=O)C(O)(c2ccccc2)c2ccccc2)CC1", "inhibition": "inactive: 4.73%"}
{"compound": "O=C(NCC1(N2CCCCC2)CCCCC1)c1ccc(OC(F)F)cc1", "inhibition": "inactive: 6.81%"}
{"compound": "CC(C)(C)n1nnnc1C(c1ccccc1OC(F)(F)F)N1CCC(n2c(=O)[nH]c3ccccc32)CC1", "note": "(stereo not given)", "inhibition": "inactive: 0.61%"}
{"compound": "N#CC1(Nc2ccccc2)CCN(CCc2ccccc2)CC1", "inhibition": "inactive: 2.01%"}
{"compound": "O=c1[nH]c2ccccc2n1C1CCN(C(c2ccccc2OC(F)(F)F)c2nnnn2C2CCCC2)CC1", "note": "(stereo not given)", "inhibition": "inactive: 17.5%"}
{"compound": "CCN1CCC(Nc2ccc(Cl)cc2)CC1", "inhibition": "inactive: 12%"}
{"compound": "O=C(NCC1(N2CCCCC2)CCCCC1)c1cccc([N+](=O)[O-])c1", "inhibition": "inactive: -2.08%"}
